“And” between values parts separate entries of the source, which are not always exact repeats. Equal entries are not always repeated.
Legend:
[1] = species on record: Rattus norvegicus; test: Open TG-GATES - Regimen: Single; type: toxicity, organism-based, Sprague-Dawley; parameters: regimen Single, gender Male, age 6 weeks; details: in vivo, po, tissue Plasma, route gavage
[2] = species on record: Rattus norvegicus; test: Open TG-GATES - Regimen: Daily Repeat; type: toxicity, organism-based, Sprague-Dawley; parameters: regimen Daily Repeat, gender Male, age 6 weeks; details: in vivo, po, tissue Plasma, route gavage
[3] = 0 mg/kg, 3 h, dose level Control
[4] = 0 mg/kg, 6 h, dose level Control
[5] = 0 mg/kg, 9 h, dose level Control
[6] = 0 mg/kg, 24 h, dose level Control
[7] = 5 mg/kg, 9 h, dose level Middle
[8] = 0 mg/kg, 72 h, dose level Control, time 3 day
[9] = 0 mg/kg, […], dose level Control, time 7 day
[10] = 0 mg/kg, […], dose level Control, time 14 day
[11] = 0 mg/kg, […], dose level Control, time 28 day

O=P1(N(CCCl)CCCl)NCCCO1 (stereo not drawn) [CYCLOPHOSPHAMIDE ANHYDROUS]
0.9: A/G ([1]; 15 mg/kg, 3 h, dose level Low) | A/G ([1]; 15 mg/kg, 6 h, dose level Low) | A/G ([1]; 15 mg/kg, 9 h, dose level Low) | A/G ([1]; 15 mg/kg, 24 h, dose level Low) | A/G ([1]; 50 mg/kg, 3 h, dose level Middle) | A/G ([1]; 50 mg/kg, 6 h, dose level Middle) | A/G ([1]; 50 mg/kg, 9 h, dose level Middle) | A/G ([1]; 50 mg/kg, 24 h, dose level Middle) | A/G ([1]; 150 mg/kg, 3 h, dose level High) | A/G ([1]; 150 mg/kg, 6 h, dose level High) | A/G ([1]; 150 mg/kg, 9 h, dose level High) | A/G ([1]; 150 mg/kg, 24 h, dose level High)
1.1 and 0.9: A/G [1, 3] | A/G [1, 4] | A/G [1, 6]
1.3: A/G ([1]; 2 mg/kg, 9 h, dose level Low) | A/G ([1]; 15 mg/kg, 24 h, dose level High) | A/G [2, 8] | A/G ([2]; 2 mg/kg, […], dose level Low, time 7 day)
1.2: A/G ([1]; 2 mg/kg, 3 h, dose level Low) | A/G ([1]; 2 mg/kg, 6 h, dose level Low) | A/G ([1]; 2 mg/kg, 24 h, dose level Low) | A/G ([1]; 5 mg/kg, 3 h, dose level Middle) | A/G ([1]; 5 mg/kg, 6 h, dose level Middle) | A/G [1, 7] | A/G ([1]; 5 mg/kg, 24 h, dose level Middle) | A/G ([1]; 15 mg/kg, 3 h, dose level High) | A/G ([1]; 15 mg/kg, 6 h, dose level High) | A/G ([1]; 15 mg/kg, 9 h, dose level High) | A/G ([2]; 2 mg/kg, 72 h, dose level Low, time 3 day) | A/G ([2]; 5 mg/kg, 72 h, dose level Middle, time 3 day) | A/G ([2]; 5 mg/kg, […], dose level Middle, time 7 day)
1: A/G [2, 11] | A/G ([2]; 2 mg/kg, […], dose level Low, time 28 day)
44.2 mg/dL: TG [1, 7]
1.2 and 0.9: A/G [1, 5]
1.1: A/G [2, 9] | A/G [2, 10] | A/G ([2]; 2 mg/kg, […], dose level Low, time 14 day) | A/G ([2]; 5 mg/kg, […], dose level Middle, time 14 day) | A/G ([2]; 5 mg/kg, […], dose level Middle, time 28 day) | A/G ([2]; 15 mg/kg, 72 h, dose level High, time 3 day) | A/G ([2]; 15 mg/kg, […], dose level High, time 7 day) | A/G ([2]; 15 mg/kg, […], dose level High, time 14 day) | A/G ([2]; 15 mg/kg, […], dose level High, time 28 day)

CSc1ccc2c(c1)N(CCC1CCCCN1C)c1ccccc1S2 (stereo not drawn) [THIORIDAZINE]
2.5: A/G [1, 5]
2.2: A/G [1, 4] | A/G [1, 6] | A/G ([1]; 10 mg/kg, 6 h, dose level Low) | A/G ([1]; 100 mg/kg, 3 h, dose level High) | A/G ([1]; 100 mg/kg, 6 h, dose level High) | A/G ([1]; 100 mg/kg, 9 h, dose level High) | A/G ([2]; 30 mg/kg, 72 h, dose level Middle, time 3 day)
2.4: A/G ([1]; 10 mg/kg, 3 h, dose level Low) | A/G ([1]; 10 mg/kg, 9 h, dose level Low) | A/G ([1]; 10 mg/kg, 24 h, dose level Low) | A/G ([1]; 30 mg/kg, 3 h, dose level Middle) | A/G [2, 8]
2.1: A/G ([1]; 30 mg/kg, 24 h, dose level Middle) | A/G [2, 9] | A/G ([2]; 10 mg/kg, […], dose level Low, time 7 day) | A/G ([2]; 30 mg/kg, […], dose level Middle, time 7 day) | A/G ([2]; 100 mg/kg, 72 h, dose level High, time 3 day)
2: A/G ([1]; 30 mg/kg, 9 h, dose level Middle) | A/G ([2]; 30 mg/kg, […], dose level Middle, time 14 day) | A/G ([2]; 100 mg/kg, […], dose level High, time 7 day)
1.9: A/G ([2]; 10 mg/kg, 72 h, dose level Low, time 3 day) | A/G ([2]; 10 mg/kg, […], dose level Low, time 14 day) | A/G ([2]; 10 mg/kg, […], dose level Low, time 28 day) | A/G ([2]; 30 mg/kg, […], dose level Middle, time 28 day) | A/G ([2]; 100 mg/kg, […], dose level High, time 14 day) | A/G ([2]; 100 mg/kg, […], dose level High, time 28 day)
1.8: A/G [2, 10] | A/G [2, 11]
103.8 meq/L: Cl ([1]; 10 mg/kg, 3 h, dose level Low)
2.3: A/G [1, 3] | A/G ([1]; 30 mg/kg, 6 h, dose level Middle) | A/G ([1]; 100 mg/kg, 24 h, dose level High)

— ChEMBL document CHEMBL3885861, “Open TG-GATES”
